Earlier results as cited in US20240299593A1, “SYSTEMS AND METHODS FOR GENERATION OF HYPERPOLARIZED MATERIALS” (NVISION IMAGING TECHNOLOGIES GMBH, priority 2021, published 2024).

Details: ICH toxicity limits, residual solvent; cited from earlier work

C[N+](=O)[O-]
Permissible Daily Exposure: 0.5 mg/day
